Article PMC10933966, “In Vitro and In Silico of Cholinesterases Inhibition and In Vitro and In Vivo Anti-Melanoma Activity Investigations of Extracts Obtained from Selected Berberis Species” (Molecules, 2024)
≈ marks a conversion by molar mass, not a printed value. Where “and” joins values, the source holds several entries; their conditions need not be identical. Equal values may be shown once. Read-outs that look alike come from different tables or passages of the source.

By UniProt entry, the sequences of proteins in these tests, tags left out. Residues count along the entry.
UniProt P22303, 32-614, species assumed: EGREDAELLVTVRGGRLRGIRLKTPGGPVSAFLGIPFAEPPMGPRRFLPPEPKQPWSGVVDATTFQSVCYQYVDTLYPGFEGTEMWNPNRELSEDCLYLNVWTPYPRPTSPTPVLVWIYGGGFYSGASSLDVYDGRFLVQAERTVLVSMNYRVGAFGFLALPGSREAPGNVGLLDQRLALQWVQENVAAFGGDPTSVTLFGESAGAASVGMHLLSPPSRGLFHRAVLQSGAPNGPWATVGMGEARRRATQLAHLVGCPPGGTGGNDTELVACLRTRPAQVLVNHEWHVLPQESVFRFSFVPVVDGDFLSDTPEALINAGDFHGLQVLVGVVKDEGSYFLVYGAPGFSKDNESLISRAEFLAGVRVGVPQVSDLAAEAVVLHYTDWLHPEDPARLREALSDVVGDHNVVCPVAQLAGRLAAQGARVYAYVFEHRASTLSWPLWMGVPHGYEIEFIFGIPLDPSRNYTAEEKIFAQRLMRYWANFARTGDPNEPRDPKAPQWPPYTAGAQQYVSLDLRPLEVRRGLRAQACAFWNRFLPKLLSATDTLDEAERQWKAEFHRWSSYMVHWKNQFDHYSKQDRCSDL
UniProt P06276, 29-602: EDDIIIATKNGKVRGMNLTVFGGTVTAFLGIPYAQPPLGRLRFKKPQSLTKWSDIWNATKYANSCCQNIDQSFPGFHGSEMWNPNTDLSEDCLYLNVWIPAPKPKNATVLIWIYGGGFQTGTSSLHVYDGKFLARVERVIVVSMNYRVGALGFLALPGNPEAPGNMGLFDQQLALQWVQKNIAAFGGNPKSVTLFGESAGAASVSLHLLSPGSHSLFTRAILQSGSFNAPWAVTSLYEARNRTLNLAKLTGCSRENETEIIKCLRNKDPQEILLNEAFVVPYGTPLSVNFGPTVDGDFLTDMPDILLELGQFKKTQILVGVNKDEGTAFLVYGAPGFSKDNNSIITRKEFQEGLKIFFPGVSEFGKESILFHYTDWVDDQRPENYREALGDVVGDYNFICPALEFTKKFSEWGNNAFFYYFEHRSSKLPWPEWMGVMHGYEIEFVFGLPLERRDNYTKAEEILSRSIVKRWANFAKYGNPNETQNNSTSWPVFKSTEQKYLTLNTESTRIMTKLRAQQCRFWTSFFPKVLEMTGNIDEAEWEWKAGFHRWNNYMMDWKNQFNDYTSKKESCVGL

Legend:
acetylcholinesterase [1] = target: T1, acetylcholinesterase (Homo sapiens, UniProt P22303); experiment: biochemical; conditions: IC50 Values Acetylcholinesterase
T1 construct: purchased Sigma-Aldrich (St. Louis, MO, USA)
Description: (§1) All experiments were repeated three times.
S1. Samples preparation for determination of acetylcholinesterase inhibitory activity A stock solutions of reagents were prepared by dissolving of acetylcholinesterase at con-centrations 200 U/mL or 2 U/mL, acetylthiocholine iodide at concentration 0.0125 M and 5′- dithiobis-(2-nitrobenzoic acid) at concentration 0.00167 M in phosphate buffer at pH 7.8.
Samples for determination of acetylcholinesterase inhibitory activity were obtained by mixing of 50 µL of acetylthiocholine iodide, 50 µL of 5′-dithiobis-(2-nitrobenzoic acid), 50 µL of […]
as §1
All experiments were performed in triplicates.

acetylcholinesterase [2] = target: T1, acetylcholinesterase; experiment: Kinetic study of acetylcholinesterase inhibition (Lineweaver-Burk plots and replots); assay type: biochemical; conditions: replot of Lineweaver-Burk slopes vs inhibitor concentration; substrate acetylthiocholine iodide
Description: Lineweaver–Burk and Dixon plots were used for the determination of the type of inhibition and inhibition constants (Ki value) of these alkaloids. […] The Ki value was estimated from the replots of the slope of the individual Lineweaver–Burk plots versus the inhibitor concentrations (Figure 5B). […] The type of acetylcholinesterase inhibition and Ki value was determined for palmatine by the same method.

acetylcholinesterase [3] = target: T1, acetylcholinesterase; conditions: cited from earlier work
butyrylcholinesterase = target: T2, butyrylcholinesterase (Homo sapiens, UniProt P06276); experiment: Butyrylcholinesterase inhibition, Ellman method with HPLC-DAD; assay type: biochemical; conditions: alkaloid standards; 15 min at 37 °C, pH 7.8
T2 construct: purchased Sigma-Aldrich (St. Louis, MO, USA)

| SMILES | IC50 (acetylcholinesterase [1]) | Ki (acetylcholinesterase [2]) | IC50 (acetylcholinesterase [3]) | IC50 Values Butyrylcholinesterase (butyrylcholinesterase) |
| --- | --- | --- | --- | --- |
| COc1ccc2cc3[n+](cc2c1OC)CCc1cc2c(cc1-3)OCO2 [Berberine, berberine] | 2040 nM and 2050 nM | 1400 nM | 6540 nM |  |
| CCN(C)C(=O)Oc1cccc([C@H](C)N(C)C)c1 [Rivastigmine, rivastigmine] |  |  |  | 2.10 µg/mL (≈ 8.39 µM) |
